Test results: patent publication US6242199A, “Assays for growth hormone secretagogue receptors” (Merck & Co., Inc., priority 1998, dated 2001)

How the values were obtained:
[1] = biological target: T1, growth hormone secretagogue receptor (GHSR), porcine anterior pituitary membranes (Sus scrofa, UniProt Q95254); assay: [35S]-Compound A radioreceptor binding, porcine anterior pituitary membranes; details: competition with [35S]-Compound A
T1 construct: Frozen anterior pituitary glands from male swine (50-80 Kg); from tissue; host or cells: anterior pituitary glands of male swine (50-80 kg), crude membranes
Protocol: Frozen anterior pituitary glands from male swine (50-80 Kg) or from the Wistar male rats (150-200 g) were homogenized in a tissue homogenizer in ice-cold buffer (50 mM Tris-HCl buffer, pH 7.4, 5 mM MgCl2, 2.5 mM EDTA, 0.1% bovine serum albumin and 30 μg/ml bacitracin). The homogenates were centrifuged for 5 min at 1,400×g and the resulting supernatants were then centrifuged at 34,000×g for 20 min. The pellets were resuspended in same buffer to a 1,500 μg protein/ml and stored at -80° C. Protein was determined by a Bio-Rad method (Bio-Rad Laboratories, Richmond, Calif.).
Aliquots were incubated at 20° C. for 60 min and bound radioligand was separated from free by filtration through GF/C filters pretreated with 0.5% of polyethylenimine in a Brandel cell harvester. […] Assays were carried out in triplicate and experiments repeated at least three times.

[2] = biological target: growth hormone secretagogue receptor (GHSR) of swine, native receptor of the anterior pituitary (swine) (UniProt Q95254); assay: competition with [35S]-Compound A on porcine anterior pituitary membranes, filtration

pKi [1] | pKi [2] | Substance
8.20 |  | GHRP-6
 | 8.20 | GHRP-6 (peptide)

pKi: −log10 of the molar value.
